{
  "sequences": {"note": "Sequences of proteins named here, by UniProt entry; tags and fusion partners are left off.", "UniProt P19643, whole entry": "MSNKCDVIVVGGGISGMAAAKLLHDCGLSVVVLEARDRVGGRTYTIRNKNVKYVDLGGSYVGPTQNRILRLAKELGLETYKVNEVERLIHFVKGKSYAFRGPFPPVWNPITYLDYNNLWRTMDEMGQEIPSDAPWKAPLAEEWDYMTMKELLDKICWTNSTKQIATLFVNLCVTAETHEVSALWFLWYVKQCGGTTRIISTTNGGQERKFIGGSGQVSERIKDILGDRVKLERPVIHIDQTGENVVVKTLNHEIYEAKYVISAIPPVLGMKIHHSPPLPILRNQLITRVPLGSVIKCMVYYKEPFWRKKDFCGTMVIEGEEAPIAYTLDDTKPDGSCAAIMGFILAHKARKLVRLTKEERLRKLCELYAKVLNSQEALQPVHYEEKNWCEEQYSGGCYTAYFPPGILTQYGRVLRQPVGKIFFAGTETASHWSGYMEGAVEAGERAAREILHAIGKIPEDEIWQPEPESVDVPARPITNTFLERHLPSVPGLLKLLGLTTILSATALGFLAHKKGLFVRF", "UniProt P23977, whole entry": "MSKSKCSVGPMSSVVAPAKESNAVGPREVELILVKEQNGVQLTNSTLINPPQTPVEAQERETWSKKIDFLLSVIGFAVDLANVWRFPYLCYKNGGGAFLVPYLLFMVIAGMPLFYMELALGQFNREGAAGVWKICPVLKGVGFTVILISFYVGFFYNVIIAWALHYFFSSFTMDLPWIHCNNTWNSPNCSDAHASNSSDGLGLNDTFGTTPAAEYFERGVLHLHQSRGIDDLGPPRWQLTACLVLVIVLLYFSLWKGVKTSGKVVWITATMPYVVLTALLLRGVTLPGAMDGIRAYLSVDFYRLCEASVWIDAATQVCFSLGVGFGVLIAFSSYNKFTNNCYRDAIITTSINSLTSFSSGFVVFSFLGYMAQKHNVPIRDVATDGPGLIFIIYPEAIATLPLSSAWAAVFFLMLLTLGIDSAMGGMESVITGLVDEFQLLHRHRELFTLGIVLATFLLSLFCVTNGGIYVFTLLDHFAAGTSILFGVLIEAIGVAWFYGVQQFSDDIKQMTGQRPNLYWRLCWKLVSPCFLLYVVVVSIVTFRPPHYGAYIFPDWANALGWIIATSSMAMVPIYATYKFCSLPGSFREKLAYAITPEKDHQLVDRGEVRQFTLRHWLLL", "UniProt P58028, whole entry": "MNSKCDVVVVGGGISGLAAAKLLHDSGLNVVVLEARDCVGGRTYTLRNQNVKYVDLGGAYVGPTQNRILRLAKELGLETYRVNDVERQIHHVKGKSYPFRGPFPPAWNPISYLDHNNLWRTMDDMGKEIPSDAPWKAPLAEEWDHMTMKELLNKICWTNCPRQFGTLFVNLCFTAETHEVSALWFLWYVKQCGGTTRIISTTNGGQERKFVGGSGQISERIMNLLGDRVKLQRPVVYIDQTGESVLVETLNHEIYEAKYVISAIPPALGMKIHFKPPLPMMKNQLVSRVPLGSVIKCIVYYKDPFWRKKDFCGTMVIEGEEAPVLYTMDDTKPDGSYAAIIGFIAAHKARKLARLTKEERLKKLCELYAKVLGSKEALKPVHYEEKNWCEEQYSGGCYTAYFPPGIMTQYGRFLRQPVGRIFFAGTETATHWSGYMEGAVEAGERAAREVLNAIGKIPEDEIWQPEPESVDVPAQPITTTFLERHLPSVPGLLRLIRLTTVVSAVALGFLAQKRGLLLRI"},
  "source": "patent US20060167110A1",
  "about": "(published 2006)",
  "key": {"[1]": {"molecular_target": "T1, MAO-B (Rattus norvegicus, UniProt P19643)", "assay": "biochemical", "details": "read-out: Percent Inhibition MAO-B"}, "[2]": {"molecular_target": "dopamine uptake system (Rattus norvegicus, UniProt P23977)", "assay": "Inhibition of tritiated dopamine uptake in rat neostriatal nerve-terminal (synaptosome) preparation", "details": "IC50, concentration needed to inhibit dopamine uptake by 50%"}, "[3]": {"molecular_target": "T1, MAO-B", "details": "in rats; Borbe; cited from earlier work"}, "[4]": {"molecular_target": "T1, MAO-B", "assay": "biochemical"}, "[5]": {"molecular_target": "T2, MAO-B (Cavia porcellus, UniProt P58028)", "assay": "In vivo brain MAO-B inhibition in guinea pig hippocampus after 5 daily s.c. doses", "details": "5 days of administration; more recent studies"}, "[6]": {"molecular_target": "T2, MAO-B", "assay": "MAO-B inhibition in guinea pig hippocampal homogenates in vitro"}},
  "note": "“And” between values parts separate entries of the source, which are not always exact repeats. Identical values can stand only once.",
  "data": [
    {"smiles": "C#CCNC(C)Cc1ccccc1", "note": "(single isomer, unassigned) [R(−)DMS, R(−)-desmethylselegiline]", "values": [
      {"measurement": "inhibition at 0.003 µM", "setting": "[1]", "value": 3.4, "unit": "%"},
      {"measurement": "inhibition at 0.01 µM", "setting": "[1]", "value": 7.5, "unit": "%"},
      {"measurement": "inhibition at 0.03 µM", "setting": "[1]", "value": 4.6, "unit": "%"},
      {"measurement": "inhibition at 0.1 µM", "setting": "[1]", "value": 6.7, "unit": "%"},
      {"measurement": "inhibition at 0.3 µM", "setting": "[1]", "value": 26.1, "unit": "%"},
      {"measurement": "inhibition at 1 µM", "setting": "[1]", "value": 54.7, "unit": "%"},
      {"measurement": "inhibition at 3 µM", "setting": "[1]", "value": 86.3, "unit": "%"},
      {"measurement": "inhibition at 10 µM", "setting": "[1]", "value": 95.2, "unit": "%"},
      {"measurement": "inhibition at 30 µM", "setting": "[1]", "value": 97, "unit": "%"},
      {"measurement": "IC50", "setting": "[2]", "value": "~54 µM and 54 µM"},
      {"measurement": "kind of MAO-B inhibition", "setting": "[3]", "value": "irreversible inhibitor of MAO-B"},
      {"measurement": "IC50", "setting": "[4]", "value": 0.73, "unit": "µM"}
    ]},
    {"smiles": "C#CCN(C)[C@H](C)Cc1ccccc1", "note": "[Selegiline, (R)-N-α-dimethyl-N-2-propynylbenzeethanamine, reference compound]", "values": [
      {"measurement": "reduction in potency compared to selegiline, brain MAO-B in vivo", "setting": "[5]", "value": 1},
      {"measurement": "IC50", "setting": "[6]; IC50 Values for the Inhibition of MAO-B, Guinea Pig Hippocampal Cortex", "value": 0.001, "unit": "µM"},
      {"measurement": "reduction in potency compared to selegiline, MAO-B, Guinea Pig Hippocampal Cortex", "setting": "[6]; figure in parentheses", "value": "1 nM (1)"},
      {"measurement": "inhibition at 0.005 µM", "setting": "[6]; read-out: MAO-B % Inhibition 0 ± SEM, Concentration 5 nM", "value": "81.2 ± 2.6", "unit": "%"},
      {"measurement": "inhibition at 0.01 µM", "setting": "[6]; read-out: MAO-B % Inhibition 0 ± SEM, Concentration 10 nM", "value": "95.6 ± 1.3", "unit": "%"},
      {"measurement": "inhibition at 0.03 µM", "setting": "[6]; read-out: MAO-B % Inhibition 0 ± SEM, Concentration 30 nM", "value": "98.5 ± 0.5", "unit": "%"},
      {"measurement": "inhibition at 0.1 µM", "setting": "[6]; read-out: MAO-B % Inhibition 0 ± SEM, Concentration 100 nM", "value": "98.8 ± 0.5", "unit": "%"},
      {"measurement": "inhibition at 0.3 µM", "setting": "[6]; read-out: MAO-B % Inhibition 0 ± SEM, Concentration 0.3 μM", "value": "28.3 ± 8.7", "unit": "%"}
    ]}
  ]
}
